Test results reported in patent US20230381328A1, “COMPOUND FOR THE PREVENTION OR TREATMENT OF MYASTHENIA GRAVIS” (ABLEVIA BIOTECH GMBH, priority 2020, published 2023).

Test system: antibodies directed against a peptide derived from the human AChR protein MIR
Assay: In vivo antibody titre lowering by SADC in mice pre-immunized with peptide vaccine T1-1 (peptide ELISA)
Parameters: species or system BALB/c mice
Settings: 30 μg SADC i.p.; T1-1 immunized mice; titers up to +72 h
Description: Animal models: In order to provide in vivo models with measurable titers of prototypic undesired antibodies in human indications, BALB/c mice were immunized using standard experimental vaccination with KLH-conjugated peptide vaccines derived from established human autoantigens or anti-drug antibodies. […] All experiments were performed in compliance with the guidelines by the corresponding animal ethics authorities.
Immunization of mice with model antigens: Female BALB/c mice (aged 8-10 weeks) were supplied by Janvier (France), maintained under a 12 h light/12 h dark cycle and given free access to food and water. […]
Titer analysis: Peptide ELISAs were performed according to standard procedures using 96-well plates (Nunc Medisorp plates; Thermofisher, Cat Nr 467320) coated for 1 h at RT with BSA-coupled peptides (30 nM, dissolved in PBS) and incubated with the appropriate buffers while shaking (blocking buffer, 1% BSA, lx PBS; washing buffer, 1×PBS/0.1% Tween; dilution buffer, 1×PBS/0.1% BSA/0.1% Tween). After serum incubation (dilutions starting at 1:50 in PBS; typically in 1:3 or 1:2 titration steps), bound antibodies were detected using Horseradish Peroxidase-conjugated goat anti-mouse IgG (Fc) from Jackson immunoresearch (115-035-008). After stopping the reaction, plates were measured at 450 nm for 20 min using TMB. […]

SADC-E006: Prototypic SADC: C-terminally cysteinylated peptide E006 (VKKIHIPSEKG) linked via sulfo-GMBS to mouse serum albumin scaffold
antibody titer after SADC application: clearly reduce the titers
